Earlier results as cited in EP0303681B1 (priority 1987, dated 1988).

Legend:
[1] = after intravenous administration; cited from earlier work
[2] = system: metastatic melanoma; conditions: cyclophosphamide alone for treatment of melanoma, limited number of patients (Mastrangelo et al.); cited from earlier work

In the case of `O=P1(N(CCCl)CCCl)NCCCO1` (stereo not drawn), the “drug and its metabolites detectable in plasma” value [1] is listed as “up to 72 hours”, the serum half life [1] is listed as “about 4 hours” and the response [2] is listed as “less than 13%”.
